The assay addresses Metabotropic glutamate receptor 2 (Homo sapiens, UniProt Q14416). As to the kind of experiment: Negative allosteric modulation of mGlu2R (unknown origin).

Protein sequences, listed by entry. Tags and fused reporters are not part of them. Lines headed by an entry give the natural chain unless they say otherwise; changes in a name come on top.
UniProt Q14416: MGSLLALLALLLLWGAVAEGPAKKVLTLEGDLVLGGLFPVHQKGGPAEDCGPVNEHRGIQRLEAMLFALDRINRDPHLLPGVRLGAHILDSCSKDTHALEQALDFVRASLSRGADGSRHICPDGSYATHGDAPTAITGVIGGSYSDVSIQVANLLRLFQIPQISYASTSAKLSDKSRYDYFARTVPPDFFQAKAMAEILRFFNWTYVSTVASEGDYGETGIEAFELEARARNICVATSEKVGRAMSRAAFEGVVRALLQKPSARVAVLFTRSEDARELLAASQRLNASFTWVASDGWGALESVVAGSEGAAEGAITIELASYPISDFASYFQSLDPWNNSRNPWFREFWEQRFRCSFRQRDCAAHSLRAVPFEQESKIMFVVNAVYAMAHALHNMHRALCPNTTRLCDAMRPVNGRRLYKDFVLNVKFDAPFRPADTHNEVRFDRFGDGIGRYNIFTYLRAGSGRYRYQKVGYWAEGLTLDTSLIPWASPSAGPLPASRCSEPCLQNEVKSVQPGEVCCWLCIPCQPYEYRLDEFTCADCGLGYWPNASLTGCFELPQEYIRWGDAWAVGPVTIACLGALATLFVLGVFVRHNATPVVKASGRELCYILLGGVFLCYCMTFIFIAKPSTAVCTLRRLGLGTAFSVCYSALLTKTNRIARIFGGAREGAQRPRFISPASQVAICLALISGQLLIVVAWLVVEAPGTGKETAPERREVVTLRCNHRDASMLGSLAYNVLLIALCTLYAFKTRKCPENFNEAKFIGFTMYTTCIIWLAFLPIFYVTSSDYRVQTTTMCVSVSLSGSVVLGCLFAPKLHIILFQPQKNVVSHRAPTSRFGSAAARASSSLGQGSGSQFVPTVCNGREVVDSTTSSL

Usually IC50 stands for the concentration at which inhibition is half-maximal. The low end stands for higher potency, the high end for lower potency.

`[11CH3]Oc1ccc(-c2cc(C(N)=O)nc3cc(CN4C(=O)CCC4=O)ccc23)c(F)c1` returned an IC50 of 45 nM.

The values above are taken from ChEMBL document CHEMBL4308859, “Discovery of Novel Central Nervous System Penetrant Metabotropic Glutamate Receptor Subtype 2 (mGlu2) Negative Allosteric Modulators (NAMs) Based on Functionalized Pyrazolo[1,5- a]pyrimidine-5-carboxamide and Thieno[3,2- b]pyridine-5-carboxamide Cores” (J Med Chem, 2018).
